These results are taken from ChEMBL document CHEMBL4118237 (Bioorg Med Chem, 2018).

By UniProt entry, the sequences of proteins in these tests, tags left out.
UniProt P35372, whole entry: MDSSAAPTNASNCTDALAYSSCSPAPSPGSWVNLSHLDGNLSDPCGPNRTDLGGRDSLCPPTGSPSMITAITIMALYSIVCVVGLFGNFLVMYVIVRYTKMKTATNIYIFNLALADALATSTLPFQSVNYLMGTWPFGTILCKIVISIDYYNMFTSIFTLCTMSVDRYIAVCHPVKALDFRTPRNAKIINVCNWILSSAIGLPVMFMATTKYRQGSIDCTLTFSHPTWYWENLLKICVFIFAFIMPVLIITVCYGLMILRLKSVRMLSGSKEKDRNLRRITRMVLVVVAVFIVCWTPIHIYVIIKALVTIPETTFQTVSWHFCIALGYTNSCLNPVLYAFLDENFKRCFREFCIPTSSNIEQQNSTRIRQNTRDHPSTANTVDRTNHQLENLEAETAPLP

The structures appear in SMILES notation.

The assay deals with Mu-type opioid receptor (Homo sapiens, UniProt P35372). Description: Binding affinity to MOR (unknown origin).

With `C[C@@H](NC(=O)[C@@H](N)Cc1ccc(O)cc1)C(=O)NCC(=O)N[C@@H](Cc1ccccc1)C(=O)NNC(=O)[C@H](Cc1ccccc1)NC(=O)CNC(=O)[C@@H](C)NC(=O)[C@@H](N)Cc1ccc(O)cc1` [BIPHALIN], the Ki worked out at 12 nM. This lies in the double-digit nanomolar range.

For orientation: Ki means a measure of affinity in units of concentration, obtained from inhibition or displacement. Low values mean a stronger hold on the target, high ones a looser hold on the target.
